The list shows a part of the results, in another mix than the full data. Results filed as inconclusive are left out. Activity calls are given as the source filed them. The call rests on the fitted dose curve; in most records, active means well fitted activation curve with a large enough effect; inconclusive means small, poorly fitted or top-dose-only effect; inactive means no such curve, though single readings can be large or run the other way.

A short description of the assay: qHTS for Suppressors of FUS Proteinopathy: Primary screen using FUS-linked yeast assay.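 Further: plate controls were DMSO vehicle for no effect and reference control for full effect; nearly all actives have a fitted effect of over 55% in size.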 Particulars: S. cerevisiae FUS-expressing, OD600, 24 h; at 76.6 µM (top of the series). An excerpt:
Several widespread neurodegenerative diseases, including Alzheimer disease, Huntington disease, Frontotemporal Lobar Degeneration (FTLD) and Amyotrophic Lateral Sclerosis (ALS), share a common pathological feature, namely accumulation of specific protein aggregates in diseased tissue. These diseases which is associated with protein misfolding (proteinopathies) have become increasingly problematic as the population ages and life expectancies are extended. Most proteinopathies are currently incurable, a situation confounded by the fact that the basis of neurodegeneration is generally poorly understood. There exists urgent and significant need to find therapeutics that can inhibit the toxicity associated with protein aggregation. A novel approach to understand the underlying mechanisms of neurodegenerative diseases has recently emerged in which the disease conditions are modeled in the yeast (Saccharomyces cerevisiae), a tractable eukaryotic organism with conserved protein quality control mechanisms. Yeast offers quick and reliable genetic manipulations and can be easily tailored to high-throughput screening (HTS).
For this project, a yeast model of the FUS proteinopathies (a spectrum of neurodegenerative diseases that include ALS and a subtype of FTLD) was generated and employed. The cytoplasmic accumulation of the DNA/RNA-binding protein FUS (also known as TLS) is causative to both familial and sporadic forms of ALS and FTLD. This yeast model recapitulates neuronal pathology by showing severe cytotoxicity associated with cytoplasmic accumulation of FUS aggregates and a specific interaction between FUS and TDP-43, another ALS-associated protein. […] Specifically, the cellular accumulation of misfolded FUS that disrupts RNA homeostasis in both yeast and higher eukaryotes. This model was validated to be suitable for quantitative HTS (qHTS) use for finding genetic or chemical factors that restore growth. […] Identified compounds that inhibits FUS-yeast toxicity is flagged, re-acquired, and validated for further investigation and optimization.
NIH Chemical Genomics Center [NCGC]
NIH Molecular Libraries Probe Production Centers Network [MLPCN]
Assay Submitter (PI): Frank Shewmaker PhD, Uniformed Services University of the Health Sciences
Compound CP55940 was used as the positive control. Column 1 was treated with CP55940 titration from 92uM (final concentration, 1:2 dilution), while Column 2 was treated with top dose 92uM. Columns 3 and 4 were treated with DMSO only as negative control to assess background and noise signal.
Four hundred fifty microliter of cultured yeast (in 20mL rich medium) provided by Dr. Shewmaker lab was incubated at 30C at 99% humidity for 3hr. The culture was then spun down at 4000rpm for 5min and the cell pellet was resuspended in 2mL of Sdmin Media + ALU(330) + 2.5% Raffinose. One hundred microliter of the suspension was added to 900uL of water and OD of the solution was obtained. Twenty mL of responding medium (provided by Shewmaker lab) + 2.5% raffinose was added to ensure cell density of 0.1; the solution was incubated overnight. Working cell solution (FUS-yeast in Sdmi + Sdmi + 1X ALU + 2% galactose media) was prepared (final OD at 0.005) and 3uL was dispensed in a 1536-well Aurora high based clear bottom assay plates. Controls and library compounds (at various final concentrations from 40uM to 0.32uM) were added using a 1536-well pin array using the Kalypsys pin-tool. The plates were then incubated for 24hrs in a cell-culture incubator (30C; 99% humidity). Absorbance at 600nm was then read using the PerkinElmer ViewLux plate reader.
For orientation: qHTS replaces the single test concentration by a dilution series.
For `CP(=O)(OC12CC3CC(CC(C3)C1)C2)OC12CC3CC(CC(C3)C1)C2`, the growth rescue (activation) is inactive: 21.5%.
The figure for `CP(=O)(Nc1ccc(Cl)cc1)Oc1ccc(F)cc1` (configuration not stated) is inactive: 7.77%.
For the compound `CC(C)(C)c1ccc(OP(C)(=O)O)cc1`, the growth rescue (activation) was inactive: 0.361%.
In the case of `COc1ccccc1OP(C)(=O)Nc1ccccc1Br` (configuration not stated), the growth rescue (activation) is inactive: 2.96%.
The figure for `CN(C)C(=O)c1c([N+](=O)[O-])cc([N+](=O)[O-])cc1[N+](=O)[O-]` is inactive: 8.55%; for `CCN(CC)CC(O)COC(=O)C(O)(c1ccccc1)C1CCCCC1` (configuration not stated) it is inactive: 5.1%; for `COc1ccc(OP(C)(=O)Nc2ccc(Br)cc2)cc1` (configuration not stated) it is inactive: 22.8%.
The figure for `CP(=O)(Oc1ccccc1)N1CCOC1=O` (configuration not stated) is inactive: -17.8%.
In the case of `CCc1ccc(OP(C)(=O)Nc2cccnc2)cc1` (configuration not stated), the growth rescue (activation) was inactive: 9.57%.
As for `COc1ccccc1OP(C)(=O)Nc1c(C)n(C)n(-c2ccccc2)c1=O` (configuration not stated), the growth rescue (activation) was inactive: -3.64%.
Take `O=C(OCCCN1CCCC1)C(O)(c1ccccc1)C1CCCCC1` (configuration not stated): the growth rescue (activation) is inactive: 9.72%.
On to `O=[N+]([O-])c1cc([N+](=O)[O-])c(Nc2ccccn2)c([N+](=O)[O-])c1`, for which the growth rescue (activation) was inactive: -2.21%.
In the case of `Cc1c(NP(C)(=O)Oc2ccc(C(C)C)cc2)c(=O)n(-c2ccccc2)n1C` (configuration not stated), the growth rescue (activation) is inactive: 2.18%.
Then `CCc1ccc(OP(C)(=O)O)cc1`, with inactive: -4.43%; and `CP(=O)(Nc1ccccn1)Oc1ccccc1` (configuration not stated), with inactive: 19.1%.
Then `COc1ccccc1OP(C)(=O)Nc1ccc(C)cc1C` (configuration not stated), with inactive: 9.83%; and `COc1ccccc1OP(C)(=O)Nc1ccc(Br)cc1` (configuration not stated), with inactive: 13.6%; and `CN(C)CCOC(=O)C(O)(c1ccccc1)C1CCCC1` (configuration not stated), with inactive: -25.4%.
On to `COc1ccc(OP(C)(=O)Nc2ccccn2)cc1` (configuration not stated), for which the growth rescue (activation) was inactive: 6.98%.
On to `CP(=O)(OCCOc1ccccc1)OCCOc1ccccc1`, for which the growth rescue (activation) is inactive: -13.5%.
For `CP(=O)(Nc1ccc(Cl)cc1Cl)Oc1ccccc1` (configuration not stated), the growth rescue (activation) was inactive: -0.711%.
In the case of `Cc1cc(C)cc(OP(C)(=O)Nc2cccc(C(F)(F)F)c2)c1` (configuration not stated), the growth rescue (activation) is inactive: 30.6%.
For `COc1ccc(OP(C)(=O)Nc2ccccc2Br)cc1` (configuration not stated), the growth rescue (activation) is inactive: 4.53%.
The figure for `COc1ccccc1OP(C)(=O)Nc1ccc(C)c(C)c1` (configuration not stated) is inactive: -12%.
Then `CCN(CC)CCCOC(=O)C(O)(c1ccccc1)C1CCCCC1` (configuration not stated), with inactive: -2.08%.
The figure for `Cc1c([N+](=O)[O-])cc([N+](=O)[O-])c(Br)c1[N+](=O)[O-]` is inactive: 15.9%; for `CCCCCOc1ccc(NP(C)(=O)Oc2ccc(Cl)cc2Cl)cc1` (configuration not stated) it is inactive: 33.2%; for `CP(=O)(Nc1ccccc1)Oc1ccc(F)cc1` (configuration not stated) it is inactive: 3%.
For `COc1ccc(OP(C)(=O)Nc2ccc(SC(F)(F)F)cc2)cc1` (configuration not stated), the growth rescue (activation) was inactive: 30.7%.
As for `CCOC(=O)c1ccc(NP(C)(=O)Oc2ccc(F)cc2)cc1` (configuration not stated), the growth rescue (activation) is inactive: 11.9%.
The figure for `CP(=O)(Nc1ccccc1F)Oc1ccccc1` (configuration not stated) is inactive: 2.35%; for `CP(=O)(Nc1ccc2c(c1)OCCO2)Oc1ccccc1` (configuration not stated) it is inactive: 13.6%.
Consider `O=[N+]([O-])c1cc([N+](=O)[O-])c(C(F)(F)F)c([N+](=O)[O-])c1O`, for which the growth rescue (activation) is inactive: 1.05%.
Then `Cc1ccccc1NP(C)(=O)Nc1ccccc1C`, with inactive: -1.57%; and `CP(=O)(Nc1ccc(SC(F)(F)F)cc1)Oc1ccc(F)cc1` (configuration not stated), with inactive: 4.14%; and `CCOP(C)(=S)SCC(=O)NC(C)(CC)C(=O)O` (configuration not stated), with inactive: 8.57%.
Regarding `Cc1cc(-c2cccc3ccccc23)c(C)cn1.O=[N+]([O-])c1cc([N+](=O)[O-])c(O)c([N+](=O)[O-])c1`, the growth rescue (activation) is inactive: 13.6%.
On to `O=[N+]([O-])c1ccc(OP2(=O)COCCO2)cc1` (configuration not stated), for which the growth rescue (activation) was inactive: 3.66%.
Take `Cc1c(C(c2ccc3c(c2)OCO3)c2c(C)n(C)n(-c3ccccc3)c2=O)c(=O)n(-c2ccccc2)n1C.O=[N+]([O-])c1cc([N+](=O)[O-])c(O)c([N+](=O)[O-])c1`: the growth rescue (activation) is inactive: -31%.
Then `COc1ccc(OP(C)(=O)Nc2cccc(Br)c2)cc1` (configuration not stated), with inactive: 6.03%; and `COc1ccc(NP(C)(=O)Oc2ccccc2OC)cc1` (configuration not stated), with inactive: 1.34%; and `CN(C)CCOC(=O)C(O)(c1ccccc1)C1CCCCC1` (configuration not stated), with inactive: -13.9%.

For the origin of these results see PubChem BioAssay AID1347120 (National Center for Advancing Translational Sciences (NCATS), 2019).
